The numbers were not newly measured in patent publication US20190183948A1, “USE OF BCL-XL INHIBITOR AND ONCOLYTIC VIRUS IN PREPARATION OF ANTITUMOR DRUG” (GUANGZHOU VIROTECH PHARMACEUTICAL CO., LTD., priority 2016, published 2019), which cites them from elsewhere.

Chains of the proteins cited; added tags and fusions are not shown.
UniProt P10415, whole entry, species assumed: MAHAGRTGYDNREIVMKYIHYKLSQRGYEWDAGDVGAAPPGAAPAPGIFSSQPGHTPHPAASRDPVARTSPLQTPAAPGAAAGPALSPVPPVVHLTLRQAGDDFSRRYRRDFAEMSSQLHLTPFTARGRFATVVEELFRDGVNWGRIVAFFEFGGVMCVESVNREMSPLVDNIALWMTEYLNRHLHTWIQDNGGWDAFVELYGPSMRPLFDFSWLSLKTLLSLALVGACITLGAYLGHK

The series deals with Bcl-2 (Homo sapiens, UniProt P10415). Particulars: cited from earlier work.

SMILES strings stand for the structures.

For `CC1(C)CCC(c2ccc(Cl)cc2)=C(CN2CCN(c3ccc(C(=O)NS(=O)(=O)c4ccc(N[C@H](CCN5CCOCC5)CSc5ccccc5)c(S(=O)(=O)C(F)(F)F)c4)cc3)CC2)C1` [ABT-263], the Ki – broadly, the dissociation constant of the complex between target and ligand, obtained from inhibition or displacement – is not above 1 nM.
